Source: US11129871B1, “Compositions and methods for treating and preventing endoplasmic reticulum (ER) stress-mediated kidney diseases” (Washington University, priority 2018, dated 2021)

Protein sequences, listed by entry. Tags and fused reporters are not part of them.
UniProt E9Q401, whole entry: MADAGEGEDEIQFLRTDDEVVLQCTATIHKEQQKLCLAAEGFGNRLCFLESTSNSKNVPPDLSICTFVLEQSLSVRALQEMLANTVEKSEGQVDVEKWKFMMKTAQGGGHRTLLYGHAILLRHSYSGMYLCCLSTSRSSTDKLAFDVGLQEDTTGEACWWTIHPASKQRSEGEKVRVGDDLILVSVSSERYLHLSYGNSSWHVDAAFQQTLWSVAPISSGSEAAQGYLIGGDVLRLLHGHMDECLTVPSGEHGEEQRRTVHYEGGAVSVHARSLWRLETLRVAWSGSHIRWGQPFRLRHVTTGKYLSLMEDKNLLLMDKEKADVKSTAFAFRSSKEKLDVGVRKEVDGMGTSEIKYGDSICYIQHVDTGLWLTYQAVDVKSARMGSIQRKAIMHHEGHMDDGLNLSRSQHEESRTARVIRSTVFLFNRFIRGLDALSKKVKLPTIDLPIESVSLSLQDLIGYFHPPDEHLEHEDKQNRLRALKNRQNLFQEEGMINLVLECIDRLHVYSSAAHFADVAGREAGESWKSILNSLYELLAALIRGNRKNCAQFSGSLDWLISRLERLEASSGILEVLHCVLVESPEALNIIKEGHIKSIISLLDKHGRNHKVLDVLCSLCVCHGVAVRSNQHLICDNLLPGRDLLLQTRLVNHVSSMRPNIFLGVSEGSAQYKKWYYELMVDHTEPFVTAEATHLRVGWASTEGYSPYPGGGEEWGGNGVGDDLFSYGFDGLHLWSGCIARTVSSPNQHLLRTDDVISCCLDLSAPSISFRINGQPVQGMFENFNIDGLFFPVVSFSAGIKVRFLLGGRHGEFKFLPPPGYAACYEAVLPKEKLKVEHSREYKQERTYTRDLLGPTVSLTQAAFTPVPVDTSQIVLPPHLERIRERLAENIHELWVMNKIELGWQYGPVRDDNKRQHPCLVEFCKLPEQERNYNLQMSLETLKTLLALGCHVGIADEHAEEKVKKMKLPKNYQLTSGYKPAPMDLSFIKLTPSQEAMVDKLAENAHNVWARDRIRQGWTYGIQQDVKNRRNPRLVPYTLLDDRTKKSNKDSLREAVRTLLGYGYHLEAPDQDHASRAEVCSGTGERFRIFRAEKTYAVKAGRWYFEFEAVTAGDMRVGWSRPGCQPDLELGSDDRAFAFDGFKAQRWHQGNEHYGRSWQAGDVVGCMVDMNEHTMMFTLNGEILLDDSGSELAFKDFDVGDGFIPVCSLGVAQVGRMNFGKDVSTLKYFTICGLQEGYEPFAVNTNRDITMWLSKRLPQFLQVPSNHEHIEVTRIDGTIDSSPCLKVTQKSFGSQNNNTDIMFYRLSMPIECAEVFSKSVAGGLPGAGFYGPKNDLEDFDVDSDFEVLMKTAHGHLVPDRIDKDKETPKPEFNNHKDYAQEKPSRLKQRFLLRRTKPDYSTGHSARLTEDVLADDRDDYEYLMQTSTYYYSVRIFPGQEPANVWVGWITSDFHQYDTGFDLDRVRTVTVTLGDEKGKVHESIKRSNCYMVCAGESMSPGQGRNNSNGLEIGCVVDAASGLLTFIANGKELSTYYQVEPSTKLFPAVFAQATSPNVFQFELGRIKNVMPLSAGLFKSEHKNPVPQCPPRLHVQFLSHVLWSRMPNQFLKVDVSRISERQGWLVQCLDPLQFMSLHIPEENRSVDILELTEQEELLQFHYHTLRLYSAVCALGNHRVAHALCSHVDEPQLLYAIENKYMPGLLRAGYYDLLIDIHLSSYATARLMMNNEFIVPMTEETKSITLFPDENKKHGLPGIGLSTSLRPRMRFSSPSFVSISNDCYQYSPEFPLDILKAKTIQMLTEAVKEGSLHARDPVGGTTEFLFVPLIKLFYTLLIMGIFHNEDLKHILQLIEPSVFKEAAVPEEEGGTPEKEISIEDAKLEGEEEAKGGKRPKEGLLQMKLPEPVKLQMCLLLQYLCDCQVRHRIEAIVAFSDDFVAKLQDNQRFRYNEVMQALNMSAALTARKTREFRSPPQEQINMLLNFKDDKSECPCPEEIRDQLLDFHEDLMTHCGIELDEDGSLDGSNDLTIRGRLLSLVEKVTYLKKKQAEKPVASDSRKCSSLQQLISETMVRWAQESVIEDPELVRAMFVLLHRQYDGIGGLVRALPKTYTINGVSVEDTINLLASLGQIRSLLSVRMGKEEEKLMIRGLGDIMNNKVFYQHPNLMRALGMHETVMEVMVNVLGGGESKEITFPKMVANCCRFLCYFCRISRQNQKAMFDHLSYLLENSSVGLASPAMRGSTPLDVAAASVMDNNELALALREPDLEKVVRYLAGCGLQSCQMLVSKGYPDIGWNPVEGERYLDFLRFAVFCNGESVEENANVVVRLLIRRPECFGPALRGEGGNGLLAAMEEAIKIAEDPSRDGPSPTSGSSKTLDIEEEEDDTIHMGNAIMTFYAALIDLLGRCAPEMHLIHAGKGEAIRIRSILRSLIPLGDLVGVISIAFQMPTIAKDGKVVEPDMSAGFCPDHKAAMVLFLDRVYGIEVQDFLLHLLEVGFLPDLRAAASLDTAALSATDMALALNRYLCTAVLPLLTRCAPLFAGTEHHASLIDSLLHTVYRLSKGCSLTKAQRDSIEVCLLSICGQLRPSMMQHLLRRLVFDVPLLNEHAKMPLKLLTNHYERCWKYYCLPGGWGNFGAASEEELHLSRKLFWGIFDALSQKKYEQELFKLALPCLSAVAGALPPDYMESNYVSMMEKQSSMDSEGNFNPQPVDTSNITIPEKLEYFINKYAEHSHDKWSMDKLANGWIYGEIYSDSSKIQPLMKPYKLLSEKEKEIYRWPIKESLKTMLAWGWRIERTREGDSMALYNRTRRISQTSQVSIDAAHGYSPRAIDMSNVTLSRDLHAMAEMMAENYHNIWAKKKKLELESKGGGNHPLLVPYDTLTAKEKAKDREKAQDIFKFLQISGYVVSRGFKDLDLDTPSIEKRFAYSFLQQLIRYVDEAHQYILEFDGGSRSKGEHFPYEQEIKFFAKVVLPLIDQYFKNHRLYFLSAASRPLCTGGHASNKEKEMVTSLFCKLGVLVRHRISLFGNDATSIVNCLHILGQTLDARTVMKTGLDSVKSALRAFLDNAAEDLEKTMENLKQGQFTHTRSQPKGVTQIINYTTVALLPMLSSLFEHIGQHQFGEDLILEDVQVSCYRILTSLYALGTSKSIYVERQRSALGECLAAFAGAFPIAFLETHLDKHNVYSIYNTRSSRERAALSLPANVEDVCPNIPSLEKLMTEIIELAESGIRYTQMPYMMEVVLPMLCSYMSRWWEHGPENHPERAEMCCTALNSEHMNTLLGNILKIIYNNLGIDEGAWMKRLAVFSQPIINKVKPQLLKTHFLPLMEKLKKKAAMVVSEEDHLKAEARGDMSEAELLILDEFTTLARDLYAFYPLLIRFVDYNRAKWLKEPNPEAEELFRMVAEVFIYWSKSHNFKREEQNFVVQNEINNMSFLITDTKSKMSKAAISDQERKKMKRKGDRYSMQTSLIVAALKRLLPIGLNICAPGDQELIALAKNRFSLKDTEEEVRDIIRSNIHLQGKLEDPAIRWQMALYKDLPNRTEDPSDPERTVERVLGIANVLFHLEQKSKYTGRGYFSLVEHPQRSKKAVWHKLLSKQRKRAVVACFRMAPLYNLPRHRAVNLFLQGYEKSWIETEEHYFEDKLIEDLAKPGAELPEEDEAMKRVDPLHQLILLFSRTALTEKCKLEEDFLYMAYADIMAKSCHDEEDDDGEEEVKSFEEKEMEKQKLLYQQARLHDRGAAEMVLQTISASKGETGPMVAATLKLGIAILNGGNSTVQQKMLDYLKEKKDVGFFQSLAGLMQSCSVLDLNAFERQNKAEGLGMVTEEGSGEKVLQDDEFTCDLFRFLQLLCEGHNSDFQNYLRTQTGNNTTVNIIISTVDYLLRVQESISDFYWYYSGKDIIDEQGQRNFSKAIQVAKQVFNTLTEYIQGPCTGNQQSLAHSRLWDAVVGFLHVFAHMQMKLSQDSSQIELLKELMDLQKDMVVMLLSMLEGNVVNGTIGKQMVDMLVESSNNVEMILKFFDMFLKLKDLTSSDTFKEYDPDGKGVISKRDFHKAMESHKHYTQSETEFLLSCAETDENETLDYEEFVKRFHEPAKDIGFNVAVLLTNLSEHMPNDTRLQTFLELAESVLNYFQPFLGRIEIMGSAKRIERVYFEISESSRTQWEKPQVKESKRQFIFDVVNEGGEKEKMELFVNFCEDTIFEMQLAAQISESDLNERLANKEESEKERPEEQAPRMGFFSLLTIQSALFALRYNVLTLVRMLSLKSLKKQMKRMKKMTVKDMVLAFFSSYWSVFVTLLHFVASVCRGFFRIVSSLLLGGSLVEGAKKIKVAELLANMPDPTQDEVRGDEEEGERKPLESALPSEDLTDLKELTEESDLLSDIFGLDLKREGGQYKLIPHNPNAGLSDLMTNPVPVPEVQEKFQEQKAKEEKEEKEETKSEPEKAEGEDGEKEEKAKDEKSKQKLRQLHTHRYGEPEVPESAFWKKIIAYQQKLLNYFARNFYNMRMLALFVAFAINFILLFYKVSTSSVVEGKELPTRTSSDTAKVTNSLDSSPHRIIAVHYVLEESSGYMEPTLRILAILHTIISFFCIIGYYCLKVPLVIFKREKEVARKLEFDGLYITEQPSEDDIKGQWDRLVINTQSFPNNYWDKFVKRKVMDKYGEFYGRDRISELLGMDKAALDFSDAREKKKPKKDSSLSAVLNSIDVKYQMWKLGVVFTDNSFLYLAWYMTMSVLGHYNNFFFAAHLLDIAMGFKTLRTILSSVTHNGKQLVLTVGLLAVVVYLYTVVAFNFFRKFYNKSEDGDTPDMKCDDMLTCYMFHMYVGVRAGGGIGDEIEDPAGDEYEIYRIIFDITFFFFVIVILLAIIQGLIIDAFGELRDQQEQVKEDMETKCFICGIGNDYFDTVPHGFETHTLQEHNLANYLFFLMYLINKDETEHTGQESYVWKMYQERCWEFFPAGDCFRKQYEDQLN

Biological target: T1, RyR2 (Mus musculus, UniProt E9Q401)
T1 construct: Cultured primary podocytes from Tg-WT and Tg-C321R mice at P27 were treated with 5 μM K201 or DMSO; endogenous in cells; host or cells: mouse primary podocytes from Tg-WT and Tg-C321R mice at P27
Experiment: Western blot of p-RyR2 (S2808) and RyR in podocyte lysates
Type: cell-based
Settings: 5 μM K201, 24 hours, Tg-C321R podocytes

COc1ccc2c(c1)CN(C(=O)CCN1CCC(Cc3ccccc3)CC1)CCS2 [K201, 4-[-3{1-(4-Benzyl)piperidinyl}propionyl]-7-methoxy-2,3,4,5-tetrahydro-1,4-benzothiazepine]
phosphorylation of RyR2 at Ser2808: inhibited hyperphosphorylation
